Measured values published in patent US9931347B2, “Pharmaceutical compound” (IOmet Pharma Ltd., priority 2013, dated 2018).

Sequences of proteins named here, by UniProt entry; tags and fusion partners are left off.
UniProt P48775, whole entry: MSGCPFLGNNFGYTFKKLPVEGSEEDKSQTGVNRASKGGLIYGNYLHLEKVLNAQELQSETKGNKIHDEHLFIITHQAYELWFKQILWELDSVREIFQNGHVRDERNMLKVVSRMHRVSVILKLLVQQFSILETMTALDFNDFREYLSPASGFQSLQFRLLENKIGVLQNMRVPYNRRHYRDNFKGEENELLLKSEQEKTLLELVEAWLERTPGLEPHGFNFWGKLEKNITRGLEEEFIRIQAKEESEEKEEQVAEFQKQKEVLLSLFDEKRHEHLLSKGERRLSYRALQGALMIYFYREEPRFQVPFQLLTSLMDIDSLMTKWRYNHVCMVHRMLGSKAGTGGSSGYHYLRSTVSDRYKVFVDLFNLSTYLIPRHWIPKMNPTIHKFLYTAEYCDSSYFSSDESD
UniProt P14902, whole entry: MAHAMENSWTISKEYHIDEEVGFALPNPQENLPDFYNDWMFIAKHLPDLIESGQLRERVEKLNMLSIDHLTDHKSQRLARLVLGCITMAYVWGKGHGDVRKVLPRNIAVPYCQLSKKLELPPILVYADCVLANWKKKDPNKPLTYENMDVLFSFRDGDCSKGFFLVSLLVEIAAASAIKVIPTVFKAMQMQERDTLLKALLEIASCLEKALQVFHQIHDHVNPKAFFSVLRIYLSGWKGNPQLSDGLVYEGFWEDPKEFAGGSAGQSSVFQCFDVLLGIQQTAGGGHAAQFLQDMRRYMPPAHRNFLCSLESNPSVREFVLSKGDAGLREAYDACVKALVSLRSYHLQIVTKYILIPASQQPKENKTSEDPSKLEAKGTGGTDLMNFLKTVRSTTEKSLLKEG

Tests used:
[1] = target: TDO (A172 human glioblastoma cells) (Homo sapiens, UniProt P48775); assay: A172 Kynurenine cell based assay; conditions: 500 μM L-tryptophan, 48 hours, kynurenine by Erhlich's reagent
[2] = target: IDO (SKOV3 human ovarian adenocarcinoma cells, IFN-γ induced) (Homo sapiens, UniProt P14902); assay: SKOV3 Kynurenine cell based assay; conditions: IDO induced by 500 ng/ml IFN-γ, 500 μM L-tryptophan, 48 hours

With `CS(=O)(=O)N1CCC(C2CNc3cc(F)ccc32)CC1` (centres unmarked) as the compound, how does the “A172 Kynurenine cell based assay pIC50” value [1] read?
The value was “+ (+ = pIC50 4.00-4.99)”.

And the “SKOV3 Kynurenine cell based assay pIC50” value [2]?
Its value is “+ (+ = pIC50 4.00-4.99)”.
